This assay addresses Amine oxidase [flavin-containing] B (Homo sapiens, UniProt P27338).

Amino acid sequences for entries named in this document (tags omitted).
UniProt P27338, whole entry: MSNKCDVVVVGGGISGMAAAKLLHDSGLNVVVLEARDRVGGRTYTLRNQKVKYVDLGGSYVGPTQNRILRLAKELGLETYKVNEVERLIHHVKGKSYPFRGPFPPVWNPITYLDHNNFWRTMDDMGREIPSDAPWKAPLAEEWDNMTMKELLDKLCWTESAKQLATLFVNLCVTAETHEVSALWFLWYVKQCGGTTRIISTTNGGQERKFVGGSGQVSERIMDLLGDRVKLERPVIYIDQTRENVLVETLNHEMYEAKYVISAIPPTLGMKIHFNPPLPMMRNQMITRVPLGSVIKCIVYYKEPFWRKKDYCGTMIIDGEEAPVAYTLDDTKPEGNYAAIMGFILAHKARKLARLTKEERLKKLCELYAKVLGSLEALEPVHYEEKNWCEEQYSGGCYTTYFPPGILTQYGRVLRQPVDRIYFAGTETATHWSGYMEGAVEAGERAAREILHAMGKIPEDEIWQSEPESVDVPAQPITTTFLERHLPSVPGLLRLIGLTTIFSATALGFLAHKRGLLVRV

Usually Ki stands for the equilibrium dissociation constant of an inhibitor or competing ligand from its target. A high value points to weaker binding. `c1ccc([C@@H]2C[C@H]2NC2CCNCC2)cc1` gave a Ki greater than 100 µM.

These data come from ChEMBL document CHEMBL5725200, “(Hetero)aryl cyclopropylamine compounds as LSD1 inhibitors” (2016).
